Measured values from ChEMBL document CHEMBL1133167, “Synthesis and opioid receptor affinity of morphinan and benzomorphan derivatives: mixed kappa agonists and mu agonists/antagonists as potential pharmacotherapeutics for cocaine dependence” (J Med Chem, 2000).

Species: Cavia porcellus
Assay: Selectivity kappa/delta

Work on CN(C(=O)Cc1ccc(Cl)c(Cl)c1)C1CCCCC1N1CCCC1 (stereo unspecified) yielded a Selectivity of 6900.
